Experiment [1] deals with human Bfl-1 (residues 1-151) (human) (UniProt Q16548). The experiment in a line: yeast surface display FACS against Bfl-1, Mcl-1, Bcl-xL, Bcl-w, Bcl-2.
Experiment [2] has as its target human Mcl-1 (residues 172-327) (human) (UniProt Q07820). In words: yeast surface display FACS.

For “dF1 (peptide; other documents disagree on this pair)”, the fold selectivity for Bfl-1 over the other family members tested in experiment [1] was above 100 fold. In turn, “dF2 (peptide; other documents disagree on this pair)” yielded a fold selectivity for Bfl-1 over the other family members tested in experiment [1] above 100 fold. Substance “dF5 (peptide; other documents disagree on this pair)” had a fold selectivity for Bfl-1 over the other family members tested in experiment [1] above 100 fold. As to “dM9 (peptide; other documents disagree on this pair)”, in experiment [2], the fold tighter binding than FS2 was 100 fold. Consider “dM10 (peptide; other documents disagree on this pair)”, for which, in experiment [2], the fold tighter binding than FS2 came out at 100 fold.
